{"source": "paper PMC9358681", "about": "(Biochemical pharmacology, 2022)", "key": {"human A2BAR [1]": {"target": "T1, human A2BAR (Homo sapiens, UniProt P29275)", "T1 construct": "host or cells: CHO-spap", "T1 sequence (P29275 1-332)": "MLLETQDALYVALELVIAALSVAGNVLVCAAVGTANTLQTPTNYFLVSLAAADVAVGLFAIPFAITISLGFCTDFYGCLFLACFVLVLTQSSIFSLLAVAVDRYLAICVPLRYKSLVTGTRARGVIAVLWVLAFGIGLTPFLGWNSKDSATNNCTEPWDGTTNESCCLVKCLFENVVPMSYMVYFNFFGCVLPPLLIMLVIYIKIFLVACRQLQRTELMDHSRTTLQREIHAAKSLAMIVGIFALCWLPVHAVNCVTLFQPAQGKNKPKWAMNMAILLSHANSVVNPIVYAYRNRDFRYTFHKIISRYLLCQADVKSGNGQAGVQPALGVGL", "assay": "[3H]PSB-603 competition association assay", "format": "binding", "details": "read-out: Kinetic KD (koff/kon)"}, "human A2BAR [2]": {"target": "T1, human A2BAR", "assay": "[3H]PSB-603 displacement on CHO-spap-hA2BAR membranes", "format": "binding", "details": "[…] [3H]PSB-603, 2 h, 25 °C"}}, "data": [{"compound": "CCCn1c(=O)c2[nH]c(-c3ccc(OCC(=O)Nc4ccc(C#N)cc4)cc3)nc2n(CCC)c1=O", "note": "[Compound 13]", "values": [{"measurement": "Kd", "setting": "human A2BAR [1]", "value": "0.61 ± 0.14", "unit": "nM"}, {"measurement": "Ki", "setting": "human A2BAR [2]", "value": 1.78, "unit": "nM"}]}]}
